ChEMBL document CHEMBL6096703 (J Med Chem, 2025)

Test: Selectivity ratio of IC50 for inhibition of PARP2 (unknown origin) in PARP1 knockout human A549 cells to IC50 for inhibition of PARP1 (unknown origin) in PARP2 knockout human A549 cells

For `CCc1cc2ncc(CN3CC=C(c4ccc(C#N)cn4)CC3)cc2[nH]c1=O`, the Ratio IC50 was 5000.
